# Experimental data taken from patent publication US6841567B1, “Cyclic substituted fused pyrrolocarbazoles and isoindolones” (Cephalon, Inc., priority 1999, dated 2005).
# The chains behind the UniProt entries cited, without tags or fusion partners. Residues count along the entry.
# UniProt P35968, 834-1162 limits assumed: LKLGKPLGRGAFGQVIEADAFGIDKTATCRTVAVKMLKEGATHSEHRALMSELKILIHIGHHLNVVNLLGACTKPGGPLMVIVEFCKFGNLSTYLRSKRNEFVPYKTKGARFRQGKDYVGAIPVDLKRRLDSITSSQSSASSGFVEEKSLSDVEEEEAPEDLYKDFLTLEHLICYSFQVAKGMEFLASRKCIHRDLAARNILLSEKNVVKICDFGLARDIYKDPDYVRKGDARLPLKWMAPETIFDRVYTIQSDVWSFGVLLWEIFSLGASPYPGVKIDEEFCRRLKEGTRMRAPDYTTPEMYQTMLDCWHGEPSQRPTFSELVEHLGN
# UniProt P04629, 440-796 limits assumed: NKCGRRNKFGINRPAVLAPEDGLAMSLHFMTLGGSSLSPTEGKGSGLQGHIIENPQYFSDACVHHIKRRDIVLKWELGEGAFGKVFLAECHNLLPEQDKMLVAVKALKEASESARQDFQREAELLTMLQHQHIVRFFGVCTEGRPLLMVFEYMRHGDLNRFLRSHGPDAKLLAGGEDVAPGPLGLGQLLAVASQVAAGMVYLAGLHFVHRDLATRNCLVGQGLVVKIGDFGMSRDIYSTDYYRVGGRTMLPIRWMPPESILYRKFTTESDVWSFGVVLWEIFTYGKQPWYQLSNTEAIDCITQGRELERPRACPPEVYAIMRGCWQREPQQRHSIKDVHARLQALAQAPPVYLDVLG
# Tests used:
# [1] = biological target: VEGF receptor (human flk-1, KDR, VEGFR2) kinase domain (Homo sapiens, UniProt P35968); assay: Inhibition of vascular endothelial growth factor receptor kinase activity (ELISA); conditions: read-out: VEGF receptor kinase activity IC50; 40 μM ATP
# Method: Cyclic substituted fused pyrrolocarbazole and isoindolone compounds were examined for their inhibitory effects on the kinase activity of baculovirus-expressed VEGF receptor (human flk-1, KDR, VEGFR2) kinase domain using the procedure described for the trkA kinase ELISA assay described above. The kinase reaction mixture, consisting of 50 mM Hepes, pH 7.4, 40 μM ATP, 10 mM MnCl2, 0.1% BSA, 2% DMSO, and various concentrations of inhibitor, was transferred to PLC-γ/GST-coated plates. VEGFR kinase was added and the reaction was allowed to proceed for 15 min. at 37 C. Detection of phosphorylated product was accomplished by addition of antII-phosphotyrosine antibody (UBI). A secondary enzymeconjugated antibody was delivered to capture the antibody-phosphorylated PLC-γ/GST complex. The activity of the bound enzyme was measured via an amplified detection system (Gibco-BRL). Inhibition data were analyzed using the sigmoidal dose-response (variable slope) equation in GraphPad Prism.
# [2] = biological target: baculovirus-expressed human trkA cytoplasmic domain (Homo sapiens, UniProt P04629); assay: Inhibition of trkA tyrosine kinase activity (ELISA-based assay); conditions: read-out: trkA kinase activity IC50; 40 μM ATP
# Method: Selected cyclic substituted fused pyrrolocarbazole and isoindolone compounds were tested for their ability to inhibit the kinase activity of baculovirus-expressed human trkA cytoplasmic domain using an ELISA-based assay as previously described (Angeles et al., Anal. Biochem. 236: 49-55, 1996). Briefly, the 96-well microtiter plate was coated with substrate solution (recombinant human phospholipase C-γ1/glutathione S-transferase fusion protein (Rotin et al., EMBO J., 11: 559-567, 1992). Inhibition studies were performed in 100 μl assay mixtures containing 50 mM Hepes, pH 7.4, 40 μM ATP, 10 mM MnCl2, 0.1% BSA, 2% DMSO, and various concentrations of inhibitor. The reaction was initiated by addition of trkA kinase and allowed to proceed for 15 minutes at 37° C. An antibody to phosphotyrosine (UBI) was then added, followed by a secondary enzyme-conjugated antibody, alkaline phosphatase-labelled goat antII-mouse IgG (Bio-Rad). The activity of the bound enzyme was measured via an amplified detection system (Gibco-BRL). Inhibition data were analyzed using the sigimoidal dose-response (variable slope) equation in GraphPad Prism.
smiles,measurement,setting,value
CCOC(=O)C1C(=O)CCC1C1c2ccccc2-c2c3c(c4c([nH]c5ccccc54)c21)CNC3=O (centres unmarked),IC50,[1],1880 nM
same,IC50,[2],315 nM
